# Apparent affinities of Ab-14 variants for a coronavirus HR2 peptide

All variants were tested on one target, the spike HR2 peptide PDVDLGDISGINAS (SARS-CoV-2).

Parent scFv Ab-14: VH joined to VL by three GGGGS repeats. Changes lie in the heavy chain CDRs alone.
VH: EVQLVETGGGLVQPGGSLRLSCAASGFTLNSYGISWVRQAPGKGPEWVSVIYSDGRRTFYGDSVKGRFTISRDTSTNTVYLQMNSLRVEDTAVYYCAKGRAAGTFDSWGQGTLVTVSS
VL: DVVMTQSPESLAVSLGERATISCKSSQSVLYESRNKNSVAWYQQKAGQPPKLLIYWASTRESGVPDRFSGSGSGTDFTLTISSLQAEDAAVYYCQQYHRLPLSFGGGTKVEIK

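The parent was found by panning a naive human phage display library on the peptide. Designed CDR sequences, proposed from the first random library and measured here. Several design methods are mixed in this list. The assay is AlphaSeq: two haploid yeast populations carry antibody and antigen on their surface. Binding brings cells together so that they mate, and sequencing counts the barcode pairs among the diploids. Read counts were normalised to the haploid input and turned into Kd by a linear fit to BCL2-family pairs of known affinity, for each replicate. The assay was run in six technical replicates.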

Changes read parent residue, position, new residue, counted from the first residue of the VH shown.
Variants here have at most six changes.
Values are log10 of the apparent Kd in nM; lower means stronger binding.
The mean shown is taken over the replicates in which the pair was detected.
"ND" means that the variant was in the library but no mating with the target was seen in that replicate; the authors take this as a sign of poor binding, and no number exists.
A sequence measured in both rounds can read differently, since the two assays cover different ranges.
The authors' rule: three or more of the six replicates give a measured affinity, fewer mean a poor binder.
The parent sequence was in this pool as ten entries: three were never detected, three once, and four in most replicates, with averages from 0.34 to 2.37.
Background: pairings of all heavy chain designs with three empty control strains gave a value in 1% of cases (median 2.08, 5th percentile 0.84). Values in that range, when seen in few replicates, are hard to tell from nonspecific mating.

For R56Y/D106N/S107H, the assay gave ND, ND, ND, ND, ND, ND.
For T28D/G61S/R100Q, the assay gave 0.13, 0.54, 0.14, 0.11, 0.01, 0.20 (mean 0.19).
For T28S/A101T/T104A/D106N, the assay gave ND, ND, ND, ND, ND, ND.
For N30Q/K65R/R100Q, the assay gave 1.73, 2.16, 0.69, 1.86, ND, 2.02 (mean 1.69).
For R56E/F59A/R100K/G103S, the assay gave ND, ND, ND, ND, ND, ND.
For G33F/G61T/V64W/A101F, the assay gave ND, ND, ND, ND, ND, ND.
For T28G/S31E/S53A/D106I, the assay gave 2.21, ND, ND, ND, ND, ND.
For S31E/G103V/S107F, the assay gave ND, ND, ND, ND, ND, ND.
For R100T/G103T/S107L, the assay gave ND, ND, ND, ND, ND, ND.
For T28E/S63Q/R100K/A101I, the assay gave ND, 2.62, 1.06, 0.82, 1.21, ND (mean 1.43).
For T28S/N30K/S53A/S63N, the assay gave -0.33, -0.96, -1.41, -1.43, -1.32, -0.76 (mean -1.04).
For S31A/S53A/F105N/D106K, the assay gave ND, ND, 1.67, ND, ND, ND.
For R56K/G61Q/A101L, the assay gave ND, 1.91, ND, 1.81, 2.06, 1.57 (mean 1.84).
For S31E/G61Q/A101F/S107K, the assay gave 1.76, 1.91, 1.21, 1.13, 1.28, 1.59 (mean 1.48).
For R100D/A101R, the assay gave 1.85, 1.50, 1.76, 1.55, 1.50, 1.44 (mean 1.60).
For T28N/S63N/A101I, the assay gave 1.22, 2.04, 0.92, 1.32, ND, 1.07 (mean 1.32).
For I34R/A101K, the assay gave ND, ND, ND, ND, ND, ND.
For S31D/R56Y/G61I, the assay gave ND, ND, ND, -0.87, ND, ND.
For T28W/S31E/S63D/A101T, the assay gave 0.93, 1.04, 1.15, 1.59, 0.88, 1.38 (mean 1.16).
For G26Y/T28S/F59A/A101T, the assay gave 1.50, 1.72, 1.87, 0.68, 2.25, 1.43 (mean 1.57).
For G61I/A101E/A102P, the assay gave 1.07, 0.53, 0.59, 0.57, 2.92, 0.80 (mean 1.08).
For T28Q/A101E, the assay gave ND, 1.07, 1.39, 2.15, 1.04, 1.50 (mean 1.43).
For T28G/S53A/R100Q/S107L, the assay gave -0.10, -0.02, 0.13, -0.14, -0.36, -0.10 (mean -0.10).
For T28S/R100W/A101T/S107W, the assay gave 0.52, 0.20, 0.79, 0.80, 0.71, 0.29 (mean 0.55).
For G26K/T28S/R100K/A101T, the assay gave ND, ND, ND, 2.46, ND, 1.94 (mean 2.20).
For T28P/R56M/G61K/A101T, the assay gave 2.21, 2.17, 0.51, 0.74, 0.78, ND (mean 1.28).
For G26K/T28S/S53A/R100E, the assay gave 1.27, 1.00, 1.12, 0.62, 0.70, 1.11 (mean 0.97).
For G26H/T28Q/S31E/F59M/A101T, the assay gave ND, 1.29, 1.54, 1.04, 1.61, 0.87 (mean 1.27).
For T28D/S31E/G55P/T104R, the assay gave ND, ND, ND, ND, ND, ND.
For S53A/G61A/F105K/S107L, the assay gave ND, ND, ND, ND, ND, ND.
For N30D/R56S/R100D, the assay gave 1.84, 2.16, 2.60, 3.52, 2.57, 2.24 (mean 2.49).
For T28S/N30E/G61L, the assay gave ND, 2.21, ND, ND, ND, 0.83 (mean 1.52).
For T28H/S31E/A101T/S107W, the assay gave 0.02, 0.21, 0.21, 0.25, 0.15, 0.24 (mean 0.18).
For T28D/S31E/G61A/A101D, the assay gave ND, ND, ND, ND, ND, ND.
For T28S/S31E/G61A/S63M/R100T, the assay gave ND, 0.12, -1.37, -1.24, ND, -0.36 (mean -0.71).
For G26K/T28S/S31D/G61S/A101T, the assay gave -0.39, -0.27, -0.41, -0.45, -0.53, -0.14 (mean -0.37).
For N30H/S53A/D54L/R100D/F105N/D106G, the assay gave ND, ND, ND, ND, ND, ND.
For G61T/R100M/A101L, the assay gave ND, ND, ND, 1.18, ND, ND.
For T28D/G61A/R100Q/A102G, the assay gave 0.51, 2.42, 0.86, 0.93, 0.41, 0.89 (mean 1.00).
For F27S/T28E/S31M/K65R, the assay gave ND, 2.98, ND, ND, ND, 2.97 (mean 2.97).
For S31Q/G61S/G103T/T104F, the assay gave ND, ND, ND, ND, 1.94, ND.
For T28H/I51D, the assay gave ND, ND, ND, ND, ND, ND.
For T28S/G61S/R100K/A101V, the assay gave -0.21, 0.51, -1.10, -0.17, 0.25, -0.12 (mean -0.14).

Repeated from above, the 3 best binders with a signal in all replicates:

changes,log10 Kd (nM) by replicate,mean log10 Kd (nM)
T28S/N30K/S53A/S63N,"-0.33, -0.96, -1.41, -1.43, -1.32, -0.76",-1.04
G26K/T28S/S31D/G61S/A101T,"-0.39, -0.27, -0.41, -0.45, -0.53, -0.14",-0.37
T28S/G61S/R100K/A101V,"-0.21, 0.51, -1.10, -0.17, 0.25, -0.12",-0.14

From the AlphaSeq antibody data of Li et al. 2023 (doi:10.1038/s41467-023-39022-2), copy in the FLAb collection.